Measurements from patent EP4830726A1, “PHARMACEUTICAL COMPOSITION CONTAINING PRMT5 INHIBITOR AND KRAS G12C INHIBITOR” (dated 2026).

System: LU99 MTAP (-/-) deleted cells
Experiment: Test of compounds as single agents, CTG luminescence cell inhibition
Details: single agent, 144 hours

C=CC(=O)N1CCN(c2nc(OC[C@@H]3CCCN3C)nc3c(F)c(-c4nc(N)cc(C)c4C(F)(F)F)c(Cl)cc23)[C@@H](C)C1
IC20: 0.62 nM
IC50: 1.7 nM
Max Inh% (maximum inhibition rate): 52.9%
